## Measured affinities in a library of Ab-14 light chain variants

Values reported by Li et al. 2023, doi:10.1038/s41467-023-39022-2 (FLAb copy).

Target peptide (SARS-CoV-2 spike, HR2 region): PDVDLGDISGINAS

The variants keep the heavy chain, the linker and the frameworks of Ab-14 (scFv order VH, three GGGGS repeats, VL).
VH: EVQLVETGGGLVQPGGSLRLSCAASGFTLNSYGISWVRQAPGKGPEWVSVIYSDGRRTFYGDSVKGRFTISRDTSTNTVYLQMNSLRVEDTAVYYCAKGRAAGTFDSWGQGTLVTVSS
VL: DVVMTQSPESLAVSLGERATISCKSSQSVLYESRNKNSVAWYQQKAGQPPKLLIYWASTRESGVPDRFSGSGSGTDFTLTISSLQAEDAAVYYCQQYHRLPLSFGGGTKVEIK

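This is the validation round: designs drawn from the data on random variants, tested in the same kind of assay. Several design methods are mixed in this list. AlphaSeq pools MATa yeast showing the antibodies with MATalpha yeast showing the peptide. The frequency of each diploid, read from paired DNA barcodes, reflects how well the two displayed proteins bind. Read counts were normalised to the haploid input and turned into Kd by a linear fit to BCL2-family pairs of known affinity, for each replicate. Mating was done six times.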

Sequences are complete VL domains. Variants here have at most six changes. The Kd shown is the geometric mean over detected replicates; a lower Kd is a better binder. A pair that was not seen in any replicate is written "nd"; this usually means weak binding, but a binder can also be missed. Empty control strains, which show no peptide, gave a signal in 4% of pairings with all light chain designs; the median was 430 nM and 95% of these signals were weaker than 38 nM. No background was subtracted.

- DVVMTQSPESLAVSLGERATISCKISQSVLYESRNKNSVAWYQQKAGQPPKLLIYNASTRESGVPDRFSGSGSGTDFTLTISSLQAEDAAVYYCQQYHRLPLSFGGGTKVEIK: 940 pM (12 of 12 replicates)
- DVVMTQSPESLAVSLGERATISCKLSQSVLYESRNKWSVAWYQQKAGQPPKLLIYNASTREDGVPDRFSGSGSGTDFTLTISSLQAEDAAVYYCQQYHRLPLSFGGGTKVEIK: 360 pM (6 of 6 replicates)
- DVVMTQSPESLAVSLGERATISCKVSQSMLYESRNWNSVAWYQQKAGQPPKLLIYNASTRESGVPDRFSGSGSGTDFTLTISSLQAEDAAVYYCQQYHRLPLSFGGGTKVEIK: 1.7 nM (6 of 6 replicates)
- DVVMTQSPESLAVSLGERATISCKAAQSWLYESRNKNSVAWYQQKAGQPPKLLIYGASTRESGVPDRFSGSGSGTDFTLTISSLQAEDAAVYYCQQYHRLPLIFGGGTKVEIK: 7.8 nM (6 of 6 replicates)
- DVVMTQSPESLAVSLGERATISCKSSQSSDYESHNKNSVAWYQQKAGQPPKLLIYWASTRESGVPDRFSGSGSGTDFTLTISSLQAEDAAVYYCQQYHRLPLSFGGGTKVEIK: 67 nM (6 of 6 replicates)
- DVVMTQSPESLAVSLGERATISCISSQSVLIESRNKNSVAWYQQKAGQPPKLLIYDASTRESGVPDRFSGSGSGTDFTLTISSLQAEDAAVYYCQQYHRLPLSFGGGTKVEIK: 400 pM (6 of 6 replicates)
- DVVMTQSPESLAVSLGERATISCTSSQSVLYESRNKNSVAWYQQKAGQPPKLLIYNASTRESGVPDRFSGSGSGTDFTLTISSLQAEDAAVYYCQQYHRLPLSFGGGTKVEIK: 4.2 nM (6 of 6 replicates)
- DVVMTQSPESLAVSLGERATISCKLMQSVCMESRNKNSVAWYQQKAGQPPKLLIYNASKRESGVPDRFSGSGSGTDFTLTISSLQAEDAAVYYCQQYHRLPLSFGGGTKVEIK: nd (0 of 6 replicates)
- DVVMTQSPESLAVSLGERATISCKLSQSVLYESRNKNNVAWYQQKAGQPPKLLIYHASTRESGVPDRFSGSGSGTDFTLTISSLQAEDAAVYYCQDYHRLPLSFGGGTKVEIK: 1.1 nM (6 of 6 replicates)
- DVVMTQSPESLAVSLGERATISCKFSQSELYESRNKNSVAWYQQKAGQPPKLLIYNASTRLSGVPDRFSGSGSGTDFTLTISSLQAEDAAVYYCQQYHRLPLSFGGGTKVEIK: 2.4 nM (6 of 6 replicates)
- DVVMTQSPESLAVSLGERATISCKLRQSCLYESRNKNSVAWYQQKAGQPPKLLIYMASQRCSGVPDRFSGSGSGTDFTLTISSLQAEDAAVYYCQQYHRLPLSFGGGTKVEIK: 4.0 nM (6 of 6 replicates)
- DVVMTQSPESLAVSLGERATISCKLEQSELYESRNKNSVAWYQQKAGQPPKLLIYNASLRESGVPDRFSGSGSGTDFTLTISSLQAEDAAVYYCQQYHRLPLSFGGGTKVEIK: 1.0 nM (6 of 6 replicates)
- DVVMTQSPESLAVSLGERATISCKLSQSDLYESRNKNSVAWYQQKAGQPPKLLIYNASTRESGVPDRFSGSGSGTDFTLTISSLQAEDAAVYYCQAYHRLPLSFGGGTKVEIK: 1.7 nM (6 of 6 replicates)
- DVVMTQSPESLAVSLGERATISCKLEQSILYESRNKNSVAWYQQKAGQPPKLLIYNASTRESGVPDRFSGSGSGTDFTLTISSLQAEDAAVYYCQQYHRLPLSFGGGTKVEIK: 4.6 nM (6 of 6 replicates)
- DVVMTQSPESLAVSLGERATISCKSSQSVLYESRKKNSVAWYQQKAGQPPKLLIYWASTRESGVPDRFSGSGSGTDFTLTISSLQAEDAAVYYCCQYHRLPLSFGGGTKVEIK: nd (0 of 6 replicates)
- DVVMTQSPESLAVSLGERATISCKSSQSVLYESRNKNGVAWYQQKAGQPPKLLIYWVSTRESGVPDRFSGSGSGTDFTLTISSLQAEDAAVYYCQQYHRLPLSFGGGTKVEIK: nd (0 of 6 replicates)
- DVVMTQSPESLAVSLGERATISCKLSQSVLQESRNKNNVAWYQQKAGQPPKLLIYEASQRESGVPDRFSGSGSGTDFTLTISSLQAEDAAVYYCQQYHRLPLSFGGGTKVEIK: 3.2 nM (6 of 6 replicates)
- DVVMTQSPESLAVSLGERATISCKVQQSVLYESRNKNSVAWYQQKAGQPPKLLIYEASTRESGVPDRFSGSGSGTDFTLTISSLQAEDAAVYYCQQYHRLPLSFGGGTKVEIK: 750 pM (6 of 6 replicates)
- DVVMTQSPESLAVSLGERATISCKSAWSVLYESNNKNSVAWYQQKAGQPPKLLIYHASTREDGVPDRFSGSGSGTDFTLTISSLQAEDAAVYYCQQYHRLPLSFGGGTKVEIK: 11 nM (6 of 6 replicates)
- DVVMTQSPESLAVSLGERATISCKLMQSVLYESRNKNSVAWYQQKAGQPPKLLIYNASTRESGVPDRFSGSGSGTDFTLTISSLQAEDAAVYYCQQYHRLPLMFGGGTKVEIK: 1.8 nM (6 of 6 replicates)
- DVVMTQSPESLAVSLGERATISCKSSISDLEESRNKNSVAWYQQKAGQPPKLLIYEASTRESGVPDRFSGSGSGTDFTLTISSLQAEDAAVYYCQQYHRLPLSFGGGTKVEIK: nd (0 of 6 replicates)

The 2 strongest on average among those seen in every replicate, once more:

{"VL": "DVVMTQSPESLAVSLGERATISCKLSQSVLYESRNKWSVAWYQQKAGQPPKLLIYNASTREDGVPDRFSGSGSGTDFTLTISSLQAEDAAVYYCQQYHRLPLSFGGGTKVEIK", "apparent Kd": "360 pM", "detected": "6 of 6"}
{"VL": "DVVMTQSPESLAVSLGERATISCISSQSVLIESRNKNSVAWYQQKAGQPPKLLIYDASTRESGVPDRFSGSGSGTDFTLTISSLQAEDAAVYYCQQYHRLPLSFGGGTKVEIK", "apparent Kd": "400 pM", "detected": "6 of 6"}

Some sequences occur more than once in the pool; their replicates are pooled. A sequence measured in both rounds can read differently, since the two assays cover different ranges. The authors' rule: three or more of the six replicates give a measured affinity, fewer mean a poor binder.